Test results from patent publication US20080027139A1, “Use of Alpha-Ketoglutarate and Related Compounds” (priority 2004, published 2008).
Read-outs that look alike come from different tables or passages of the source. Marks after values point to notes of the source that are not given here.

Legend:
[1] = test system: sham-operated (SHO) and ovariectomized (OVX) Wistar female rats
Protocol: A study was conducted on Wistar female rats kept in standard weather conditions. […] Afterwards the female rates were randomly divided into 2 groups: ovariectomy were performed in all animals in group one (OVX) and placebo operation were done in the second group (SHO). Surgical procedures were performed under general anesthesia (rometare, ketamine and atropine in doses 2, 10 and 0.05 mg/kg of bodily weight respectively.
Studies were conducted on the animals from the two groups: females received experimental solutions from the seventh day following the operation (simulation of the first period of the lack of activity of the ovarian hormones) (Experiment I 1), females aged 7 months with a 5 month period in which there was no activity of hormonal ovaries (simulation of the period with a prolonged absence of the activity of ovarian hormones) (Experiment I 2) (Tab. 2).
In each of Experiments I1 and I2 40 animals was used for each experimental doses making a total of 240 animals.
Blood samples were collected immediately after slaughter, and the plasma removed by centrifugation was stored in a safe place for further biochemical analyses.
The entire cholesterol concentration was determined by means of commonly available analytical equipment using the spectrophotometric method.

[2] = test system: volunteers with a relatively high level of cholesterol
Text: The experiment lasted for the total of 42 days. […] During the experiment no quantitative or qualitative restrictions regarding the diet were introduced. In the period from day 1 to day 28 the patients' lipid profile was checked every seven days in order to determine the concentration of cholesterol, fractions of LDL and HDL and triglycerides. […] Subsequent measurements of the lipid profile were taken on 42nd day of the experiment.

[3] = test system: Wistar rats with diet-induced hypercholesterolaemia; settings: day 120; for HDL level in the blood serum / LDL level in the blood serum / Total cholesterol level in the blood serum / Triglycerides level in the blood serum: cholesterol/lard diet, mean ± S.E.M
[4] = AKG doses 0.1 and 1 from day 61 for 60 days, females and males, p<0.05
[5] = female rats, AKG dose 0.1 from day 61 for 60 days
[6] = female rats, AKG dose 1.0 from day 61 for 60 days
[7] = male rats, AKG dose 0.1 from day 61 for 60 days
[8] = male rats, AKG dose 1.0 from day 61 for 60 days

Which “cholesterol concentration in blood serum” value ([1]; OVX female rats, AKG dose 0.01, 150 days after surgery + 60 days of AKG treatment, mean ± S.E.M, p<0.05 vs OVX + placebo) does the source give for `O=C(O)CCC(=O)C(=O)O` [AKG, alpha-ketoglutaric acid] here?
Its value is 1.68 ± 0.09^B mmol/l.

And the “cholesterol concentration in blood serum” value ([1]; OVX female rats, AKG dose 0.01 per os, 7 days after surgery + 60 days of AKG treatment, mean ± S.E.M, p<0.05 vs OVX + placebo)?
The value was 1.46 ± 0.08^b mmol/l.

What about the “cholesterol concentration in blood serum” value ([1]; OVX female rats, AKG dose 0.1, 150 days after surgery + 60 days of AKG treatment, mean ± S.E.M, p<0.01 vs OVX + placebo) of the same molecule?
Its value is 1.59 ± 0.06^B mmol/l.

And the “cholesterol concentration in blood serum” value ([1]; OVX female rats, AKG dose 1.0, 7 days after surgery + 60 days of AKG treatment)?
Its value is 1.44 ± 0.11 mmol/L.

And the “cholesterol concentration in blood serum” value ([1]; OVX female rats, AKG dose 1.0, 90 days after surgery + 60 days of AKG treatment, p<0.001 vs placebo)?
Its value is 0.49 ± 0.09^B* mmol/l.

And the “cholesterol concentration in blood serum” value ([1]; OVX female rats, title: dose 0.1 of AKG, column head: (dose 0.01), 7 days after surgery + 60 days of AKG treatment)?
Its value is 1.47 ± 0.08 mmol/L.

What about the “cholesterol concentration in blood serum” value ([1]; SHO female rats, AKG dose 0.01 (basic solution 146 g AKG/10 l thinned one hundredfold) per os, 7 days after surgery + 60 days of AKG treatment, mean ± S.E.M) of the same molecule?
The value was 1.50 ± 0.19 mmol/L.

And the “cholesterol concentration in blood serum” value ([1]; SHO female rats, AKG dose 0.01, 150 days after surgery + 60 days of AKG treatment, mean ± S.E.M)?
The value was 1.59 ± 0.06^a mmol/l.

What about the “cholesterol concentration in blood serum” value ([1]; SHO female rats, AKG dose 0.1 (basic solution thinned tenfold), 150 days after surgery + 60 days of AKG treatment, mean ± S.E.M) of the same molecule?
Its value is 1.60 ± 0.08^a mmol/l.

And the “cholesterol concentration in blood serum” value ([1]; SHO female rats, AKG dose 1.0 (basic solution 146 g AKG/10 l), 7 days after surgery + 60 days of AKG treatment)?
Its value is 1.28 ± 0.11 mmol/L.

What about the “cholesterol concentration in blood serum” value ([1]; SHO female rats, AKG dose 1.0, 90 days after surgery + 60 days of AKG treatment, p<0.05 vs placebo) of the same molecule?
The value was 0.76 ± 0.06^b mmol/l.

And the “cholesterol concentration in blood serum” value ([1]; SHO female rats, title: dose 0.1 of AKG, column head: (dose 0.01), 7 days after surgery + 60 days of AKG treatment)?
Its value is 1.45 ± 0.19 mmol/L.

And the LDL level ([2]; Volunteer 1, 1st week, chewable tablets of 1.28 g calcium alpha-ketoglutarate (1 g AKG), two tablets three times a day, day 1-28)?
Its LDL level is 110 mg/dL.

What about the LDL level ([2]; Volunteer 1, 2nd week, calcium alpha-ketoglutarate tablets (1 g AKG), two tablets three times a day) of the same molecule?
The LDL level was 94 mg/dL.

What about the LDL level ([2]; Volunteer 1, 3rd week, calcium alpha-ketoglutarate tablets (1 g AKG), two tablets three times a day) of the same molecule?
The LDL level was 75 mg/dL.

What about the LDL level ([2]; Volunteer 1, 4th week, calcium alpha-ketoglutarate tablets (1 g AKG), two tablets three times a day) of the same molecule?
Its LDL level is 57 mg/dL.

And the LDL level ([2]; Volunteer 1, 6th week, after 2 weeks without AKG)?
The LDL level was 88 mg/dL.

What about the LDL level ([2]; Volunteer 2, 1st week, chewable tablets of 1.28 g calcium alpha-ketoglutarate (1 g AKG), two tablets three times a day, day 1-28) of the same molecule?
Its LDL level is 131 mg/dL.

And the LDL level ([2]; Volunteer 2, 2nd week, calcium alpha-ketoglutarate tablets (1 g AKG), two tablets three times a day)?
Its LDL level is 148 mg/dL.

What about the LDL level ([2]; Volunteer 2, 3rd week, calcium alpha-ketoglutarate tablets (1 g AKG), two tablets three times a day) of the same molecule?
The LDL level was 119 mg/dL.

What about the LDL level ([2]; Volunteer 2, 4th week, calcium alpha-ketoglutarate tablets (1 g AKG), two tablets three times a day) of the same molecule?
The LDL level was 110 mg/dL.

What about the LDL level ([2]; Volunteer 2, 6th week, after 2 weeks without AKG) of the same molecule?
The LDL level was 131 mg/dL.

And the “effect on concentration of LDL fraction (in words)” value ([2]; two volunteers, after 28 days of tablets containing 1 g of AKG, 2 tablets 3 times a day)?
The value was “decrease”.

What about the “change of concentration of LDL fraction after stopping (in words)” value ([2]; two volunteers, after a 14 day break in administering the preparation) of the same molecule?
Its value is “increased”.

What about the “effect on LDL fraction in blood plasma (in words)” value [3, 4] of the same molecule?
The value was “statistically significant decrease”.

And the “effect on entire cholesterol in blood plasma (in words)” value [3, 4]?
Its value is “statistically significant decrease”.

And the “effect on triglycerides in blood plasma (in words)” value [3, 4]?
Its value is “statistically significant decrease”.

What about the “HDL level in the blood serum” value [3, 5] of the same molecule?
Its value is 39.4 ± 0.68^ mg/dl.

And the “LDL level in the blood serum” value [3, 5]?
Its value is 0.20 ± 0.015^b mg/dl.

What about the “Total cholesterol level in the blood serum” value (“Total cholesterol level” for short) [3, 5] of the same molecule?
The value was 77.2 ± 3.14^b mg/dl.

What about the “Triglycerides level in the blood serum” value [3, 5] of the same molecule?
Its value is 111.7 ± 1.85^b mg/dl.

And the “HDL level in the blood serum” value [3, 6]?
Its value is 40.2 ± 1.59^ mg/dl.

What about the “LDL level in the blood serum” value [3, 6] of the same molecule?
Its value is 0.20 ± 0.019^b mg/dl.

What about the “Total cholesterol level” value [3, 6] of the same molecule?
Its value is 69.2 ± 2.5^b mg/dl.

And the “Triglycerides level in the blood serum” value [3, 6]?
The value was 142.0 ± 2.39^c mg/dl.

And the “HDL level in the blood serum” value [3, 7]?
The value was 39.0 ± 1.67^b mg/dl.

What about the “LDL level in the blood serum” value [3, 7] of the same molecule?
The value was 5.4 ± 2.48^b mg/dl.

And the “Total cholesterol level” value [3, 7]?
Its value is 65.0 ± 2.28^b mg/dl.

What about the “Triglycerides level in the blood serum” value [3, 7] of the same molecule?
Its value is 102.2 ± 10.89^b mg/dl.

And the “HDL level in the blood serum” value [3, 8]?
Its value is 35.6 ± 2.32^b mg/dl.

And the “LDL level in the blood serum” value [3, 8]?
The value was 10.2 ± 2.31^b mg/dl.

What about the “Total cholesterol level” value [3, 8] of the same molecule?
Its value is 69.6 ± 2.73^b mg/dl.

What about the “Triglycerides level in the blood serum” value [3, 8] of the same molecule?
Its value is 119.6 ± 17.35^b mg/dl.
